Laboratory results published in US7101890B2, “Benzazepine derivatives, drugs containing these and use of the same for producing drugs” (priority 1996, dated 2006).
pIC50: −log10 of the molar value.

Amino acid sequences for entries named in this document (tags omitted). Residues count along the entry.
UniProt P06276, 29-602: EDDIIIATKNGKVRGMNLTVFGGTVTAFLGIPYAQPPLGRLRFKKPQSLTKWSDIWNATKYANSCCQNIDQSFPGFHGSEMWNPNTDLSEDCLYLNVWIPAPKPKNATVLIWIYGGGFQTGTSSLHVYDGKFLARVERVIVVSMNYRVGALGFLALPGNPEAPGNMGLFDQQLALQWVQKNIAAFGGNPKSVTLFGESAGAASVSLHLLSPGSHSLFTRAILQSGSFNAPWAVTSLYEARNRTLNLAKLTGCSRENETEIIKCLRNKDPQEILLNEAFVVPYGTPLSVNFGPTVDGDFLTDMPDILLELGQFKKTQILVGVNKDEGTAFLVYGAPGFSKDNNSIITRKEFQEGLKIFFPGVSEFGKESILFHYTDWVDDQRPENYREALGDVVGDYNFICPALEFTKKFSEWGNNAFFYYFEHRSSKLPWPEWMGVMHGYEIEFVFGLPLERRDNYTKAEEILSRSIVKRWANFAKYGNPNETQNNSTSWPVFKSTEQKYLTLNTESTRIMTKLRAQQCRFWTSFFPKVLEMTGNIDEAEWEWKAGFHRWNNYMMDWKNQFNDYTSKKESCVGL

Target: acetylcholine esterase (Homo sapiens, UniProt P06276)
Assay: Inhibition of acetylcholine esterase, modified method of Ellmann, human serum
Format: biochemical
Details: ACHE inhibition

Row | Substance | IC50 in μMol (human serum from a pool of 10 test subjects, 37° C., pH 7.8, compounds of general formula (I)) | pIC50 (human serum pool, compounds of formula (II))
1 | methylnarwedine Oxime [Substance 78] | insol. | 
2 | 3R-2,3,4,4a-tetrahydro-7-bromo-9-methoxy-10-hydroxy (1H,6H) (5,10b) ethanophenanthridine-10-ol [Substance 116] |  | 4.30
